{
  "source": "patent US20090062391A1",
  "about": "“Use of a virucidal ointment in the nares for prevention of transmission and contraction of common colds” (priority 2007, published 2009)",
  "origin": "cited, not measured here",
  "tested_on": "rhinovirus",
  "settings": "Hendley et al. [4]",
  "data": [
    {"smiles": "Oc1c(Cl)cc(Cl)c(Cl)c1Cc1c(O)c(Cl)cc(Cl)c1Cl", "note": "[hexachlorophene]", "values": [
      {"measurement": "antiviral activity", "value": "performed poorly"}
    ]}
  ]
}
